# Tests used:
# Protein sequences, listed by entry. Tags and fused reporters are not part of them.
# UniProt P11802, whole entry: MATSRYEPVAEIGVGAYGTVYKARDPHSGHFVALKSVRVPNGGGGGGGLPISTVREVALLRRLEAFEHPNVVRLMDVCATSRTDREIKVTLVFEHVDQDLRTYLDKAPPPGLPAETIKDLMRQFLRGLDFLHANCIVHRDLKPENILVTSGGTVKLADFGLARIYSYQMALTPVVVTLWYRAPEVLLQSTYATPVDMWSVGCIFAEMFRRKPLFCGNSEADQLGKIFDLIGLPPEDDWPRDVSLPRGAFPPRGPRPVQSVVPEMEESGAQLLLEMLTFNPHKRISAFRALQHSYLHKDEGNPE
# UniProt Q00534, whole entry: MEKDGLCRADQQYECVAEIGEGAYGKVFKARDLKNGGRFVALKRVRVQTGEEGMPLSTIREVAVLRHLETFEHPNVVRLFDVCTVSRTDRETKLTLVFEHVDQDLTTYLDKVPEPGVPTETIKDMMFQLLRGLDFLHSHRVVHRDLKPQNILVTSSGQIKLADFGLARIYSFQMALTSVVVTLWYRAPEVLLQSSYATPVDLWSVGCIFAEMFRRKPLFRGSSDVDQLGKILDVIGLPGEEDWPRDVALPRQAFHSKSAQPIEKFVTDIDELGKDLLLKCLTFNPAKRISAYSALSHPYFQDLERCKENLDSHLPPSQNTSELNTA
# UniProt P24385, whole entry partner: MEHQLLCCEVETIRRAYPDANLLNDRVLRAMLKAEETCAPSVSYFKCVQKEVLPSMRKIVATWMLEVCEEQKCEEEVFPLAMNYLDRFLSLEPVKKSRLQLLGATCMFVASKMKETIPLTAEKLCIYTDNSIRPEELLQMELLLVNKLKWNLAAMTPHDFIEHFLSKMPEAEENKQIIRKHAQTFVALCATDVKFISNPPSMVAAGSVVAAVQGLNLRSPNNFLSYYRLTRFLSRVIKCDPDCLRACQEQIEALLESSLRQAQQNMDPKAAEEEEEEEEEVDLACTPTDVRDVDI
# UniProt P30281, whole entry partner: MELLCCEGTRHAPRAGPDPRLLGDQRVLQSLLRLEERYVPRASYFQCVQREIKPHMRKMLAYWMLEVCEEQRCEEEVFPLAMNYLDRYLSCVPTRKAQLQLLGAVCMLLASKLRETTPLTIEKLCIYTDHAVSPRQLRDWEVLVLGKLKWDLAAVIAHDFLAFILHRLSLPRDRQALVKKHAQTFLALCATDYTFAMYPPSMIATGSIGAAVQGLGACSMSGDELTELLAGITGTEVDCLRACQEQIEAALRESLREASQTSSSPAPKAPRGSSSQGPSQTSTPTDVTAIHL
# [1] = biological target: CDK4/Cyclin D1 (Homo sapiens (Human), UniProt P11802); assay: TR-FRET kinase inhibition assay, CDK4/Cyclin D1; details: read-out: CDK4D1 IC50, 1 mM ATP, 0.15 μM Rb (Ser780)-biotin substrate
# [2] = biological target: CDK6/Cyclin D3 (Homo sapiens (Human), UniProt Q00534); assay: TR-FRET kinase inhibition assay, CDK6/Cyclin D3; details: read-out: CDK6D3 IC50, 1 mM ATP, 0.15 μM Rb (Ser780)-biotin substrate
# Procedure: Compounds disclosed herein were tested for inhibition of CDK4/Cyclin D1 or CDK6/Cyclin D3 kinase in an assay based on the time-resolved fluorescence-resonance energy transfer (TR-FRET) methodology. The assay was carried out in 384-well low volume black plates in a reaction mixture containing CDK4/Cyclin D1 or CDK6/Cyclin D3, 1 mM ATP, 0.15 μM Rb (Ser780)-biotin substrate and 0-10 μM compound in buffer containing 50 mM HEPES pH7.0, 0.02% NaN3, 0.01% BSA, 0.1 mM Orthovanadate, 50 mM MgCl2, 1 mM DTT and 0.005% Tween-20. The kinase was incubated with compound for 60 minutes at room temperature and the reaction was initiated by the addition of ATP and Rb (Ser780)-biotin substrate. After reaction at room temperature for 120 minutes, an equal volume of stop/detection solution was added according to the manufacture's instruction (Cisbio Bioassays). The stop/detection solution contained Streptavidin-XL665 and Anti-pRb (Ser780) mAb-Eu Cryptate in Detection buffer (Cisbio Bioassays). Plates were incubated at room temperature for 60 minutes, and the TR-FRET signals (ex337 nm, em665 nm/620 nm) were recorded on a PHERAstar FSX plate reader (BMG Labtech). The inhibition percentage of CDK4/Cyclin D1 or CDK6/Cyclin D3 kinase activity in presence of increasing concentrations of compounds was calculated based on the ratio of fluorescence at 665 nm to that at 620 nm. […]
structure (smiles),measurement,setting,value
CC(C)n1c(CN2CC3CCC(C2)O3)cc(=O)c2ccc(-c3nc(N[C@@H]4CCOC[C@H]4O)ncc3F)cc21,IC50,[1],17 nM
same,IC50,[2],374 nM

# Source: patent publication US20250136586A1, “Substituted 7-(Pyrimidin-4-yl)Quinolin-4(1H)-One Compounds as Cyclin Dependent Kinase Inhibitors” (BeiGene, Ltd., priority 2022, published 2025)
